The target of experiment [1] is integrin α4β7 (Homo sapiens, UniProt P13612+P26010). The experiment in a line: VCAM antagonistic activity (VCAM-1/α4β7 binding assay), RPMI-8866 cells binding to VCAM-1. Particulars: read-out: Antagonistic Activity IC50 α 4 β 7/VCAM; RPMI-8866 cells binding to recombinant human VCAM-1, binding buffer with 4 mM MnCl2; 50% binding inhibition. The protocol: VCAM Antagonistic Activity (VCAM-1/α4β7 Binding Assay)
(§1) The capacity of a test substance antagonistic to the binding of lymphoma cell strain RPMI-8866 of human B cells, known to express integrin α4β7, to VCAM-1 was determined. 100 μl/well of a solution (500 ng/ml) of recombinant human VCAM-1 (R & D systems) solution diluted with buffer A (0.1 M NaHCO3, pH 9.6) was added to a micro titer plate having 96 wells (Nunc Maxisorp). After the incubation at 4° C. overnight, unbound VCAM-1 was removed by washing once with PBS. After completion of the washing, a buffer (buffer B) obtained by diluting Block Ace (Dainippon Pharmaceutical Co., Ltd.) with PBS to ¼ concentration was added in an amount of 150 μl/well. After the incubation at room temperature for 1 hour, buffer B was removed and the plate was washed with PBS once.
RPMI-8866 cells were incubated in Dulbecco modified Eagle medium containing 10 μg/ml of Calcein-AM (Wako Pure Chemical Industries, Ltd.) (SIGMA, hereinafter referred to as “DMEM”) at 37° C. for 30 minutes to label with fluorescence. The cells were again suspended in a binding buffer (20 mM HEPES, DMEM containing 0.1% BSA) containing 4 mM of MnCl2.
(§2) 50 μl of a test substance of various concentrations obtained by the dilution with the binding buffer was added to the plate. Immediately thereafter, 50 μl (final volume: 100 μl/well) of the fluorescent RPMI-8866 cells (4×10^6 cells/ml) were added thereto, and they were incubated at room temperature for 30 minutes. After the shaking on a plate shaker (IKA MTS-4) at 800 rpm for 30 seconds, the solution was immediately removed to remove the unbound cells. The fluorescence quantity of the bound cells remaining in the wells was determined with a fluorescent plate reader (Wallac 1420 ARVO multi-label counter) (filter excitation wave length: 485 nm, emission wave length: 535 nm). The fluorescent strength thus obtained is proportional to the number of RPMI-8866 cells bound to VCAM-1 and remaining on the plate. The binding rate of each test material in various concentrations was determined while the fluorescent strength of the test material-free well was determined to be 100%. The concentration IC50 for the 50% binding inhibition was calculated.

Chains of the proteins cited; added tags and fusions are not shown. Residues count along the entry.
UniProt P13612, 34-1032 limits assumed: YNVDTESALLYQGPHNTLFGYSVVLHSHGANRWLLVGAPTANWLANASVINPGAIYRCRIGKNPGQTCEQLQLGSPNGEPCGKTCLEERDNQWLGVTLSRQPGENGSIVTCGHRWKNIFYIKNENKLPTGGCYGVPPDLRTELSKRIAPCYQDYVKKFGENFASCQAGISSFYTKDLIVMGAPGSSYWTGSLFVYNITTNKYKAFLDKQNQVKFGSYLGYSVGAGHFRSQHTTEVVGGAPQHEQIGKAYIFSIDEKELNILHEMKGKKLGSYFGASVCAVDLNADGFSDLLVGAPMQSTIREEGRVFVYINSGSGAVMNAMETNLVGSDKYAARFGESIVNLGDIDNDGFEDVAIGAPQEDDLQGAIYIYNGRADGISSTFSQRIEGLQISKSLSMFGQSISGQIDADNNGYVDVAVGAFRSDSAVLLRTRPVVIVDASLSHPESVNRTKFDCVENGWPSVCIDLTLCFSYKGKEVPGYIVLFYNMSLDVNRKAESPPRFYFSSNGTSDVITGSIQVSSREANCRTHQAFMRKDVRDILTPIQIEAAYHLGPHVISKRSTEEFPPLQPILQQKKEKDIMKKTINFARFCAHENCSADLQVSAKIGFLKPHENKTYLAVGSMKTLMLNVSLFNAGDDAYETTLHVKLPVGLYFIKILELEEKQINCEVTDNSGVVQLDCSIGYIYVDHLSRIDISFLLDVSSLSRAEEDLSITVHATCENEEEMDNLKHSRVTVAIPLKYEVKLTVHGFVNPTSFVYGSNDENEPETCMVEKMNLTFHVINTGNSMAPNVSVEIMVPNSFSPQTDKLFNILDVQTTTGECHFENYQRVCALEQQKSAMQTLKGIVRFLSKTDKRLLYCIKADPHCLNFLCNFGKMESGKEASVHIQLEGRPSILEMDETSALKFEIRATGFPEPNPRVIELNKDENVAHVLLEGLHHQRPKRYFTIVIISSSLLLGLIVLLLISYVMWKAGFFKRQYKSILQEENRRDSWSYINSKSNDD
UniProt P26010, 20-798 limits assumed: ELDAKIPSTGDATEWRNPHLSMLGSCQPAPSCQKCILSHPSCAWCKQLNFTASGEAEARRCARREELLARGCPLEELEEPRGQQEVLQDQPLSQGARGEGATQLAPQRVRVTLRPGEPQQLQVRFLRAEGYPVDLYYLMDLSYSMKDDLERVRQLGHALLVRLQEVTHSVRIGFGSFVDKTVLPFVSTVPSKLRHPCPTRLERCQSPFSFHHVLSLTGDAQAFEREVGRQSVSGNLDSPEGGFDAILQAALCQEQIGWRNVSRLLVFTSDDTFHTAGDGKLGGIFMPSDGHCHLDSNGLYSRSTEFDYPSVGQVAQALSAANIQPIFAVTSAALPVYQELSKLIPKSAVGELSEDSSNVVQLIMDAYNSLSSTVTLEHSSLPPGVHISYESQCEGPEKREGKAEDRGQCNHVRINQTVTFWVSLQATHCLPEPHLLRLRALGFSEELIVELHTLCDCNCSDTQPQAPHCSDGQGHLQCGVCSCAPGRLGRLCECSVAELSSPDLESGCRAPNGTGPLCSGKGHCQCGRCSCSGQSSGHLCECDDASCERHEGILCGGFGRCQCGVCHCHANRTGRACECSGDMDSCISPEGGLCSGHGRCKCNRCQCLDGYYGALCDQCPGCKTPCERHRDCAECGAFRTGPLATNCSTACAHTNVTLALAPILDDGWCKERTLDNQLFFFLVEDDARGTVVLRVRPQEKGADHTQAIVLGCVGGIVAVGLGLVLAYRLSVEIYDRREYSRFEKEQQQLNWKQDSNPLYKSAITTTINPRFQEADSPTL
UniProt P05556, 21-798 limits assumed: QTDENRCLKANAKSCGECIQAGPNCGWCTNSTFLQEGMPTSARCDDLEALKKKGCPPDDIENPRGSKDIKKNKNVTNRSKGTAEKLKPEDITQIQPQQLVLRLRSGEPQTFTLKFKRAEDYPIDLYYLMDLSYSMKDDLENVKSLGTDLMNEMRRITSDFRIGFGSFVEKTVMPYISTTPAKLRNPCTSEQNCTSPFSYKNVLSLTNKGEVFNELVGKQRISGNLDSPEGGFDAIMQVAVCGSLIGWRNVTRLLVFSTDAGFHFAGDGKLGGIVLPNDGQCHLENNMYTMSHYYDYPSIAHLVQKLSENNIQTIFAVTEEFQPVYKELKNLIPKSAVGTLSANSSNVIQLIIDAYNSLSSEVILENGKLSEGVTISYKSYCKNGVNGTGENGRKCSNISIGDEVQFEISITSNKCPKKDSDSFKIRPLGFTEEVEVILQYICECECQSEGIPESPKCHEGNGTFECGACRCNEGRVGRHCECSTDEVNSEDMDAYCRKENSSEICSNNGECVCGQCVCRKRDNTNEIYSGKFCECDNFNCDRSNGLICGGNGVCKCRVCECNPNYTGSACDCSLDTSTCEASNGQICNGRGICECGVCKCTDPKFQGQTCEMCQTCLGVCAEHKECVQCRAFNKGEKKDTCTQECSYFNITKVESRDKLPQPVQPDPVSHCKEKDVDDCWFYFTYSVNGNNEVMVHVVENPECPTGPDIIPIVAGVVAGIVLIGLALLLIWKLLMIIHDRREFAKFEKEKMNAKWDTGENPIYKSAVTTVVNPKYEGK

For experiment [2], the target named is integrin α4 β1 (Homo sapiens, UniProt P05556+P13612). Nature of the experiment: VCAM antagonist activity (VCAM-1/α4β1 binding assay), Jurkat cells binding to VCAM-1. Particulars: read-out: Antagonistic Activity IC50 α 4 β 1/VCAM; Jurkat cells binding to recombinant human VCAM-1; 50% binding inhibition. The protocol: VCAM Antagonist Activity (VCAM-1/α4β1 Binding Assay)
as §1, with “of” for “of lymphoma”, “strain Jurkat (ATCC TIB-152)” for “strain RPMI-8866”, “human T” for “human B”, “integrin α4 β1,” for “integrin α4β7,”
Jurkat cells were washed with Dulbecco modified Eagle medium (SIGMA, hereinafter referred to as “DMEM”) twice and then incubated in DMEM containing 10 μg/ml of Calcein-AM (Wako Pure Chemical Industries, Ltd.) at 37° C. in dark place for 30 minutes to label with fluorescence. The cells were again suspended in a binding buffer (20 mM HEPES, DMEM containing 0.1% BSA).
as §2, with “μl well)” for “μl/well)”, “Jurkat” for “RPMI-8866”

For eleven molecules, IC50 results are on record in patent US7452905B2, “Phenylalanine derivatives” (Ajinomoto Co., Inc., priority 2000, dated 2008).

For the molecule `CC(C)COc1cccc2c1C(=O)N(c1ccc(C[C@H](NC(=O)c3c(Cl)cccc3Cl)C(=O)O)cc1)C2=O`, the IC50 in experiment [1] is 96 nM; in experiment [2] it was 1200 nM.

`Cc1cccc2c1C(=O)N(c1ccc(C[C@H](NC(=O)c3c(Cl)cccc3Cl)C(=O)O)cc1)C2=O`: the IC50 in experiment [1] was 20 nM; in experiment [2], 500 nM.

Regarding `O=C(N[C@@H](Cc1ccc(N2C(=O)c3ccc(Br)cc3C2=O)cc1)C(=O)O)c1c(Cl)cccc1Cl`, the IC50 in experiment [1] worked out at 18 nM; in experiment [2] it was 270 nM.

Turning to `Nc1ccc2c(c1)C(=O)N(c1ccc(C[C@H](NC(=O)c3c(Cl)cccc3Cl)C(=O)O)cc1)C2=O`, the IC50 in experiment [1] is 2.6 nM; in experiment [2] it was 33 nM.

In the case of `O=C(N[C@@H](Cc1ccc(N2C(=O)[C@H]3CCCC[C@H]3C2=O)cc1)C(=O)O)c1c(Cl)cccc1Cl`, the IC50 in experiment [1] stood at 19 nM; in experiment [2], 630 nM.

Regarding `COc1cccc2c1C(=O)N(c1ccc(C[C@H](NC(=O)c3c(Cl)cccc3Cl)C(=O)O)cc1)C2=O`, the IC50 in experiment [1] came to 4.5 nM; in experiment [2] it was 150 nM.

Turning to `N#CC1Cc2ccccc2C(=O)N1c1ccc(C[C@H](NC(=O)c2c(Cl)cccc2Cl)C(=O)O)cc1` (stereo partly shown), the IC50 in experiment [1] was found to be 84 nM; in experiment [2], 770 nM.

On to `O=C(N[C@@H](Cc1ccc(N2C(=O)c3cccc(F)c3C2=O)cc1)C(=O)O)c1c(Cl)cccc1Cl`, for which the IC50 in experiment [1] was 8 nM; in experiment [2] it was 140 nM.

For the molecule `O=C(N[C@@H](Cc1ccc(N2C(=O)c3ccc(F)cc3C2=O)cc1)C(=O)O)c1c(Cl)cccc1Cl`, the IC50 in experiment [1] was determined as 23 nM; in experiment [2], 600 nM.

Regarding `O=C(N[C@@H](Cc1ccc(N2C(=O)c3cccc([N+](=O)[O-])c3C2=O)cc1)C(=O)O)c1c(Cl)cccc1Cl`, the IC50 in experiment [1] was found to be 8.5 nM; in experiment [2], 330 nM.

Regarding `COC(=O)C1Cc2ccccc2C(=O)N1c1ccc(C[C@H](NC(=O)c2c(Cl)cccc2Cl)C(=O)O)cc1` (stereo partly shown), the values for the IC50 in experiment [1] and in experiment [2] were 84 nM and 1100 nM, respectively.
